Results taken from patent US20150011421.

Legend:
[1] = tested on: T1, Biotin-AEEEIYGEFEAKKKKC (SEQ ID NO:4)
T1 sequence: AEEEIYGEFEAKKKKC

[2] = tested on: H2N-(CH2)4-CO-(SEQ ID NO:2)-NH-CH2-Fc

Substance: Active c-Src kinase protein (N-terminal 6His-tagged recombinant human c-Src, molecular weight 61.7 kDa)
- change in total impedance |Z| (REIS) with 5.9 nM c-Src kinase [1]: Only a small change (<0.5%) in the total impedance value |Z| was observed with 5.9 nM of c-Src kinase

Substance: Purified recombinant human cathepsin B (R&D Systems), activated in 5 mM DTT and 25 mM MES buffer (pH 5.0)
- (kcat/KM)·15.5 nM, difference 1/τ1-1/τ0 between tissue lysate spiked with 15.5 nM purified cathepsin B and unspiked lysate [2]: 0.00093 s⁻¹
- (kcat/KM)·15.5 nM, difference 1/τ3-1/τ2 between cathepsin B-removed MDA-MB-231 lysate spiked with 15.5 nM cathepsin B and unspiked [2]: 0.00096 s⁻¹
- (kcat/KM)·[E0] at 15.5 nM cathepsin B (slope of -dS/dt vs. S) [2]: 0.000745 s⁻¹
- (kcat/KM)·[E0] at 30.7 nM cathepsin B (regular VACNF NEA) [2]: 0.00281 s⁻¹
- (kcat/KM)·[E0] at 30.7 nM cathepsin B (slope of -dS/dt vs. S) [2]: 0.00125 s⁻¹
- (kcat/KM)·[E0] at 62.1 nM cathepsin B (slope of -dS/dt vs. S) [2]: (2.15±0.37)×10^-3 s^-1
- (kcat/Km)[E0], slope of vi vs. Γsurf, [E0]=30.7 nM [2]: a slope of 1.15×10^-3 s^-1
- decay time constant τ at 30.7 nM cathepsin B (e-beam patterned regular VACNF NEA) [2]: The fitted exponential decay time constant τ was 353 s
- decay time constant τ at 30.7 nM cathepsin B (random VACNF NEAs) [2]: 800±192 s obtained with random VACNF NEAs at the same cathepsin B concentration
- decay time constant τ of ip,acv at 15.5 nM cathepsin B (random VACNF NEA) [2]: 2940 s
- decay time constant τ of ip,acv at 30.7 nM cathepsin B (random VACNF NEA) [2]: 1290 s
- decay time constant τ of ip,acv at 62.1 nM cathepsin B (random VACNF NEA) [2]: 448 s
- specificity constant kcat/KM (ACV, average over three cathepsin B concentrations) [2]: an average value of 4.11×10^4 M^-1 s^-1 and a standard deviation of 6.66×10^3 M^-1 s^-1
- specificity constant kcat/KM (ACV, cathepsin B spiked into cathepsin B-removed MDA-MB-231 lysate) [2]: kcat/KM=6.19×10^4 M^-1 s^-1
- specificity constant kcat/KM (ACV, purified cathepsin B spiked into human breast tissue lysate) [2]: kcat/KM=6.0×10^4 M^-1 s^-1
- specificity constant kcat/KM (ACV, straight-line fit through the origin, nine experiments) [2]: (3.68±0.50)×10^4 M^-1 s^-1
- specificity constant kcat/KM (electrochemistry, EC, VACNF NEAs) [2]: 43000 M⁻¹ s⁻¹
- specificity constant kcat/Km (ACV, single experiment at 30.7 nM) [2]: 38000 M⁻¹ s⁻¹
- time constant in the fit of surface adsorbed Fc vs. time, 30.7 nM cathepsin B [2]: Γsurf=1.55×10^-15×e^(-t/683.6)-2.19×10^-19t+1.38×10^-15
- specificity constant kcat/KM (fluorescence assay, FL) (Z-Leu-Arg-AMC): 23000 M⁻¹ s⁻¹
- specificity constant kcat/KM (nine fluorescence experiments, same batch) (Z-Leu-Arg-AMC): (9.6±4.1)×10^4 M^-1 s^-1
